{"source": "patent US20200323882A1", "about": "“PHLIP®-MEDIATED TARGETING OF CORTICOSTEROIDS TO DISEASED TISSUE” (priority 2019, published 2020)", "key": {"RPMI 8226 myeloma cells": {"tested_on": "RPMI 8226 myeloma cells", "details": "5 μM pHLIP-Dexa with increasing amounts of pHLIP-Cal, viability after 22 hours"}, "[1]": {"details": "11.4 mg/kg pHLIP-Dexa in PBS/5% DMSO"}}, "data": [{"substance": "pHLIP-(PEG4)-dexamethasone [pHLIP-Dexa]", "values": [{"measurement": "effect on cytotoxicity of pHLIP-Cal", "setting": "RPMI 8226 myeloma cells", "value": "enhanced cytotoxic effect of pHLIP-Cal"}, {"measurement": "appearance of solution (aggregation)", "setting": "[1]", "value": "cloudy"}]}]}
